Active and inactive are the calls of the source. No cut-off for these calls is given here.
What was measured:
[1] = target: Delta-type opioid receptor (Rattus norvegicus) (UniProt P33533); experiment: Agonist activity at rat DOR transfected in rat C6 cell membranes at 10 uM after 1 hr by [35S]GTPgammaS assay relative to DPDPE; type: functional
Outline: (§1)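 Membranes (10–20 μg protein) from cells grown to confluence in DMEM/10% FBS, incubated 1 h at 25 °C in 50 mM Tris-HCl, 100 mM NaCl, 5 mM MgCl2, pH 7.4 with 0.1 nM [35S]GTPγS, 30 μM GDP and varying peptidomimetic concentrations. Filtered on GF/C, counted by scintillation. % stimulation relative to 10 μM DAMGO (MOR), DPDPE (DOR) or U69,593 (KOR).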

By UniProt entry, the sequences of proteins in these tests, tags left out. Where a name states a change or a piece, a line headed by the entry shows the natural chain unless it says otherwise.
UniProt P33533, whole entry: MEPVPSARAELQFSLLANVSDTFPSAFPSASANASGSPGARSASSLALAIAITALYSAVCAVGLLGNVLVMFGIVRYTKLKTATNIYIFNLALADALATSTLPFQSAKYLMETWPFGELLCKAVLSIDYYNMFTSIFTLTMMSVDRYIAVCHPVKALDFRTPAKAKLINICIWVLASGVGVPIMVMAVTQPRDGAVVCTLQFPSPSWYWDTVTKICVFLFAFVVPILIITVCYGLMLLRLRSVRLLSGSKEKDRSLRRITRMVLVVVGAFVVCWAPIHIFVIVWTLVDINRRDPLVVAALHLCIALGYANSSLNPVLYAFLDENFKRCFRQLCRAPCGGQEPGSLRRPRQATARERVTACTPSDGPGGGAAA
UniProt P41145: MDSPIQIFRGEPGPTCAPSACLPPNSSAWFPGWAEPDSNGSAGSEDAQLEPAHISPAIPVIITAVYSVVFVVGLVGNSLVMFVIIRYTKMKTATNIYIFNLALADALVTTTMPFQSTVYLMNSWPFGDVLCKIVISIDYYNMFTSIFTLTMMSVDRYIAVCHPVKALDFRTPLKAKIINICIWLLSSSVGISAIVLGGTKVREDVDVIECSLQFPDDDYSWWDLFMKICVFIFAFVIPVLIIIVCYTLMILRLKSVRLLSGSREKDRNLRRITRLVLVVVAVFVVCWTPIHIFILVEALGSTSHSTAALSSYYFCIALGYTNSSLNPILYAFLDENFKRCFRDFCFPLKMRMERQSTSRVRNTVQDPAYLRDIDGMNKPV

[2] = target: Kappa-type opioid receptor (Homo sapiens, UniProt P41145); experiment: Agonist activity at human KOR expressed in CHO cell membranes at 10 uM after 1 hr by [35S]GTPgammaS assay relative to U69,593; type: functional; outline: as §1

SMILES	Emax [1]	Emax [2]
CCC(=O)N1CC[C@@H](NC(=O)[C@@H](N)Cc2c(C)cc(O)cc2C)c2cc(Cc3ccc4ccccc4c3)ccc21	inactive	–
COC(=O)N1CC[C@@H](NC(=O)[C@@H](N)Cc2c(C)cc(O)cc2C)c2cc(Cc3ccc4ccccc4c3)ccc21	inactive	inactive
Cc1cc(O)cc(C)c1C[C@H](N)C(=O)N[C@@H]1CCN(C(=O)c2ccccc2)c2ccc(Cc3ccccc3)cc21	inactive	–

Source: ChEMBL document CHEMBL3822362, “Effects of N-Substitutions on the Tetrahydroquinoline (THQ) Core of Mixed-Efficacy μ-Opioid Receptor (MOR)/δ-Opioid Receptor (DOR) Ligands” (J Med Chem, 2016)
